Reference: PubChem BioAssay AID651768 (National Center for Advancing Translational Sciences (NCATS), 2012)
This is a selection; strong and weak results do not stand in their true shares. Calls of active or inactive are those of the source. The call rests on the fitted dose curve; in most records, active means well fitted inhibition curve with a large enough effect; inconclusive means small, poorly fitted or top-dose-only effect; inactive means no such curve, though single readings can be large or run the other way.

Amino acid sequences for entries named in this document (tags omitted).
UniProt Q14191, whole entry: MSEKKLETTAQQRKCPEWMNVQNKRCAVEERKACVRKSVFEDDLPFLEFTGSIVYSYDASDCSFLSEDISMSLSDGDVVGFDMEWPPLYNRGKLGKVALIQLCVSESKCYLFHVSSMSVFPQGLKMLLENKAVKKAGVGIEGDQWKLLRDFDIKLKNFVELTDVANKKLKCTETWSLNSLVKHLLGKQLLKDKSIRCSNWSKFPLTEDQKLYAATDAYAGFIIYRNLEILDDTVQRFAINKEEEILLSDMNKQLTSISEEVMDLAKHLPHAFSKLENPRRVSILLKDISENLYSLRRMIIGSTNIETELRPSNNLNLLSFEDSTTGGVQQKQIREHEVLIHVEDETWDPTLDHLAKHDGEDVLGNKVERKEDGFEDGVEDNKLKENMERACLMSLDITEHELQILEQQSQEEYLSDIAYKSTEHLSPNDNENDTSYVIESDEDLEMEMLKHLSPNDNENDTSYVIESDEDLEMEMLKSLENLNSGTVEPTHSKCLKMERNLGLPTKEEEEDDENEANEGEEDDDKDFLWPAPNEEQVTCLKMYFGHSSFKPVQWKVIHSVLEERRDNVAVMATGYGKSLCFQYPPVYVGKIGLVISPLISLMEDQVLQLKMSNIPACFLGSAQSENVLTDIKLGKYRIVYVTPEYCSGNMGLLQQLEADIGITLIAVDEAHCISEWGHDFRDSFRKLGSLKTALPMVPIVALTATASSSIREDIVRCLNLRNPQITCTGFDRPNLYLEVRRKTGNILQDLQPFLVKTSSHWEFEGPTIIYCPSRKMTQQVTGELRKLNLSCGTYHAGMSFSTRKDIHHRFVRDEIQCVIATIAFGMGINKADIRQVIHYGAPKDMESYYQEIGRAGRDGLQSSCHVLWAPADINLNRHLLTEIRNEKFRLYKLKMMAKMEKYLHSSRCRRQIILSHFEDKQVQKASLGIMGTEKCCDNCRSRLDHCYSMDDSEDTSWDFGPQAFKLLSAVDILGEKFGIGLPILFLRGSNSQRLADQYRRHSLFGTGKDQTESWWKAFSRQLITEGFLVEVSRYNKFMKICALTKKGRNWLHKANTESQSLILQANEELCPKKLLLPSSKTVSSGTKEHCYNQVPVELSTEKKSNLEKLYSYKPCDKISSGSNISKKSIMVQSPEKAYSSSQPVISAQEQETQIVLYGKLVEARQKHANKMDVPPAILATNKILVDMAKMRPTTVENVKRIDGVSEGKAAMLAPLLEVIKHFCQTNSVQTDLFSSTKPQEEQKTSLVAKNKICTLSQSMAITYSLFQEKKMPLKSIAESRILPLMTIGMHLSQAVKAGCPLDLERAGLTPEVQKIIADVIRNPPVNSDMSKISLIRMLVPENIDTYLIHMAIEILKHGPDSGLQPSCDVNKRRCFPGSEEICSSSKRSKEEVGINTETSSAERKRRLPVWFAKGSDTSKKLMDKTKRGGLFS

Target: Bifunctional 3'-5' exonuclease/ATP-dependent helicase WRN (Homo sapiens) (UniProt Q14191)
Assay: qHTS for Inhibitors of WRN Helicase; further: nearly all actives have a fitted effect of over 55% in size
Settings: WRN helicase unwinding, fluorescent forked duplex, kinetic; at 114 µM (top of the series) unless noted
Text: Inhibition of DNA repair is proposed as a strategy for combating cancer. Synthetic lethality is an approach that exploits preexisting DNA repair deficiencies in certain tumors to develop inhibitors of DNA repair pathways that compensate for the tumor-associated DNA repair deficiency. Because helicases play critical roles in the DNA damage response and in DNA repair, particularly in actively dividing and replicating cells, characterization of synthetic lethal relationships of DNA helicases may be of value in developing improved anticancer treatment strategies; moreover, small molecules that specifically target a given DNA helicase may be useful for understanding its role in cellular nucleic acid metabolism. The goal of this project is to identify small molecule, non-covalent chemical inhibitors of the Werner syndrome (WS) helicase (WRN), which plays an important role in cell proliferation, the replication stress response, and DNA repair. […] The WRN gene product that is defective in the chromosomal instability disorder has DNA helicase and exonuclease activities and interacts with a number of nuclear proteins to maintain genomic stability. We will employ an optimized high-throughput screening assay that utilizes a fluorescence intensity modulation scheme with a fluorophore and quencher positioned near one another within a duplex deoxyoligonucleotide that contains a single forked structure. After a high-throughput screen of the ~350,000-member Molecular Libraries Small Molecule Repository (MLSMR) collection, followed by data analysis and hit selection, a panel of confirmatory, as well as secondary and ternary, assays will be employed to identify high-confidence WRN inhibitors. Structure-activity relationships will be investigated for the top candidate inhibitor series through medchem expansion. These are the results of the primary screening campaign against the MLSMR. NIH Chemical Genomics Center [NCGC] NIH Molecular Libraries Probe Centers Network [MLPCN] MLPCN Grant: MH096530 Assay Submitter (PI): Robert Brosh, National Institute of Aging
Three muL of reagents (buffer in columns 3 and 4 as negative controls; WRN at 20 nM final concentration in columns 1 and 2 as positive controls; columns 5-48 as test reactions) will be dispensed into a 1536-well Greiner black plate via solenoid-valve based nanoliter dispensers. Compounds (23 nL each in columns 5-48) and control (23 nL each in column 2 as dose-response) will be transferred via a Kalypsys pintool equipped with a 1536-pin array. Plates will be incubated for 15 min at room temperature, and then 1 µL of substrate (100 nM forked duplex oligonucleotide and 2 mM ATP final concentrations) will be added to start reaction, and plate will be transferred into a ViewLux high-throughput CCD imager where reaction progress is measured in kinetic mode using standard red-fluorescence optics (excitation filter 525 nm, emission filter 598 nm).
On the % scale 0 is the no-effect control and ±100 the full control effect.

SMILES | activity change, negative = inhibition
CCOC(=O)C(CC)C1=NC(C)(C)Cc2ccccc21.O=[N+]([O-])c1cc([N+](=O)[O-])c(O)c([N+](=O)[O-])c1 (centres undefined) | inactive: -0.359%
N#Cc1ccc(C(=O)NCC2(N3CCCCC3)CCCCC2)cc1 | inactive: -5.57%
CC(C)(C)OC(=O)N1CCC(N(C(=O)c2ccccc2)c2ccc(Cl)cc2)CC1 | inactive: -6.48%
CC(C)(C)n1nnnc1C(c1cccc2ccccc12)N1CCC(n2c(=O)[nH]c3ccccc32)CC1 (centres undefined) | inactive: -2.85%
CN(C)C1(CNC(=O)c2cccc(C#N)c2)CCCCC1 | inactive: -8.43%
Cc1cc(N(CCCl)CCCl)ccc1C=O | inactive: -1.93%
CCCN1CCC(Nc2cc(OC)cc(OC)c2)CC1 | inactive: -4.99%
O=c1[nH]c2ccccc2n1C1CCN(C(c2ccccc2)c2nnnn2C2CCCC2)CC1 (centres undefined) | inactive: -7.09%
c1ccc(CN2CCC(Nc3ccccc3)CC2)cc1 | inactive: 5.45%
O=c1[nH]c2ccccc2n1C1CCN(C(c2cccs2)c2nnnn2C2CCCCC2)CC1 (centres undefined) | inactive: -7.59%
O=c1[nH]c2ccccc2n1C1CCN(C(c2ccnc3ccccc23)c2nnnn2C2CCCC2)CC1 (centres undefined) | inactive: -6.53%
COc1ccc(C(=O)NCC2(N3CCOCC3)CCCCC2)cc1OC | inactive: 4.05%
COc1cc(C(=O)NCC2(N3CCOCC3)CCCCC2)cc(OC)c1C | inactive: -14.5%
CCCCn1nnnc1C(c1ccccc1)N1CCC(n2c(=O)[nH]c3ccccc32)CC1 (centres undefined) | inactive: -0.973%
O=C(NCC1(N2CCOCC2)CCCCC1)c1cc(Br)ccc1Cl | inactive: -3.61%
O=C(O)c1cccc(Nc2c([N+](=O)[O-])cc([N+](=O)[O-])cc2[N+](=O)[O-])c1 | inactive: 1.9%
O=c1[nH]c2ccccc2n1C1CCN(C(c2cccs2)c2nnnn2C2CCCC2)CC1 (centres undefined) | inactive: -6.11%
CCc1cc(C(=O)NCC2(N3CCCCC3)CCCCC2)sc1C | inactive: 1.64%
O=C(OC1CN2CCC1CC2)C1c2ccccc2C=Cc2ccccc21 (centres undefined) | inactive: 8.82%
CCCCn1nnnc1C(c1cccc(OC)c1OC)N1CCC(n2c(=O)[nH]c3ccccc32)CC1 (centres undefined) | inactive: -3.33%
CCOC(=O)N1CCC(Nc2ccc(C)cc2)CC1 | inactive: -23.7%
COc1cccc(C(c2nnnn2C(C)(C)C)N2CCC(n3c(=O)[nH]c4ccccc43)CC2)c1OC (centres undefined) | inactive: -7.5%
N/C(=N\O)c1c(N)no[n+]1[O-] | inactive: 4.29%
NN(c1ccccc1)C1CCN(CCc2ccccc2)CC1 | inactive: 4.02%
